Experimental data from patent publication US9073954B2, “5-substituted benzimidazolium compounds” (Boehringer Ingelheim International GmbH, priority 2013, dated 2015).

Sequences of proteins named here, by UniProt entry; tags and fusion partners are left off.
UniProt Q61180, whole entry: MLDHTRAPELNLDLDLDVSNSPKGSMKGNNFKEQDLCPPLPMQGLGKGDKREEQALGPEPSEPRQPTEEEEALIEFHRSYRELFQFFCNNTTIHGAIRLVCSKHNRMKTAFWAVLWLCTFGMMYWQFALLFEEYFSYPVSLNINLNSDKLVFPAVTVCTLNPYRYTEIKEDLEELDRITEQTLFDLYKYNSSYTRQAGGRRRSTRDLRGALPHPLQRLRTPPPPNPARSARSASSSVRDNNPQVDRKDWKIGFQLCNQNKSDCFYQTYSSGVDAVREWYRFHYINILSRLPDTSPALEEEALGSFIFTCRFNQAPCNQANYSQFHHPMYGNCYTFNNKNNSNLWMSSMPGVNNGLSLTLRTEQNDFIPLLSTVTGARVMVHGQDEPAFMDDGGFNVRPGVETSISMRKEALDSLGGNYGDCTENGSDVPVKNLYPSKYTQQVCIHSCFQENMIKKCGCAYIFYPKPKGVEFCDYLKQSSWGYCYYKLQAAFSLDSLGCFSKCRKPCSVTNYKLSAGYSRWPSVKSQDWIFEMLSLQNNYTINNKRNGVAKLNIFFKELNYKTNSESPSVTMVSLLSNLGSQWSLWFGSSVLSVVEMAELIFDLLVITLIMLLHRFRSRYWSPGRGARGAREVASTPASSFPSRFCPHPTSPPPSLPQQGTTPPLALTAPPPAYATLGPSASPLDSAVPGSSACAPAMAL
UniProt Q9WU38, whole entry: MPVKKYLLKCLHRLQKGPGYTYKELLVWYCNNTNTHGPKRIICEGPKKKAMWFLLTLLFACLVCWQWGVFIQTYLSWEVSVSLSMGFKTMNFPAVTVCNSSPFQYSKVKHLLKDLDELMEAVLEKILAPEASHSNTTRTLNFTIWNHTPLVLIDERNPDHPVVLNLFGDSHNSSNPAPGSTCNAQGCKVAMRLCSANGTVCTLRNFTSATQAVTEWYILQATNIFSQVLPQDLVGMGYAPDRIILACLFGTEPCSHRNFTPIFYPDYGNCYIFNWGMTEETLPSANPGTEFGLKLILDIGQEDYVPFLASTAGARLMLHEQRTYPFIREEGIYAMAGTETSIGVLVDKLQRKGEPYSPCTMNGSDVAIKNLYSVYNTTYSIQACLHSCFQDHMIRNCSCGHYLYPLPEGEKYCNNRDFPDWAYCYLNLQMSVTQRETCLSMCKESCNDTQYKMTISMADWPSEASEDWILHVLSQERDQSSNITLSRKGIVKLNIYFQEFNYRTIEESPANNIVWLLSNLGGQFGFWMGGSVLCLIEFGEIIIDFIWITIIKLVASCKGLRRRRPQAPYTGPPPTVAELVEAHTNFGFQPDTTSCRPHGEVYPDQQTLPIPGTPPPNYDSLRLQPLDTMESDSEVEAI
UniProt Q9WU39, whole entry: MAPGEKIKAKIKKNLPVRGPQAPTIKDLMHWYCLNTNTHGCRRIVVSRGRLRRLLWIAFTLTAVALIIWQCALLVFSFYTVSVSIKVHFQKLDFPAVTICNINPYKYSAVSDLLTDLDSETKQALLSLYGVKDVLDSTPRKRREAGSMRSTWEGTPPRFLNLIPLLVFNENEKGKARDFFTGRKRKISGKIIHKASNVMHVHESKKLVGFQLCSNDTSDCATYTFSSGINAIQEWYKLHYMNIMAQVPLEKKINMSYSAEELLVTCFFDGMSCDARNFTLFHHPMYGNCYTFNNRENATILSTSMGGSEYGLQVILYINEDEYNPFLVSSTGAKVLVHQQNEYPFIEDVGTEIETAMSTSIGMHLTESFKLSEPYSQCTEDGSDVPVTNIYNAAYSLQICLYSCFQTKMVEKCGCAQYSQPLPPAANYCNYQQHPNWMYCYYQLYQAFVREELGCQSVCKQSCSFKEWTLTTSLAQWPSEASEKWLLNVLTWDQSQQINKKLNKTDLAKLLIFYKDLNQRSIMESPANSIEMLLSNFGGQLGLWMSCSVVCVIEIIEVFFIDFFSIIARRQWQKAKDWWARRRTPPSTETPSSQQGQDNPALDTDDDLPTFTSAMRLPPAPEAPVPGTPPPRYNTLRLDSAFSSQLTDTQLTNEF

Target: ENaC (Epithelial Sodium Channel) (Mus musculus, UniProt Q61180+Q9WU38+Q9WU39)
Assay: Ussing chamber: short circuit current in M-1 cells
Type: cell-based
Conditions: mouse kidney M-1 cells, amiloride sensitive I_SC, apical application, 37° C.

SMILES | IC50 (tested form: TFA) [nM] | IC50 (tested form: TFA salt) [nM]
CCn1c(CNC(=O)c2nc(Cl)c(N)nc2N)[n+](C[C@H](C)O)c2cc(O[C@H]3CO[C@H]4[C@@H]3OC[C@@H]4O)ccc21 | 1 | 
CCn1c(CNC(=O)c2nc(Cl)c(N)nc2N)[n+](CC)c2ccc(OCCOP(=O)(O)CCC[N+](C)(C)C)cc21 |  | 3
CCn1c(CNC(=O)c2nc(Cl)c(N)nc2N)[n+](CC)c2ccc(OCCCP(=O)(O)OCC[N+](C)(C)C)cc21 |  | 3
